# Measurements reported in patent US10052296B2, “Formulations for treating pain” (priority 2016, dated 2018).
# Experiment: physchem
# Details: thermodynamic from solid
structure (smiles),measurement,setting,value
CC(=O)Nc1ccc(O)cc1 [Acetaminophen],solubility,"pH 4, aqueous buffer",13.8 mg/mL
same,solubility,"pH 6, aqueous buffer",13.8 mg/mL
same,solubility,"water with gabapentin, pH 4, aqueous buffer, Acetaminophen solubility, APAP + GBP together in water, pH 4.0",32.9 mg/mL
same,solubility,"water with gabapentin, pH 4, aqueous buffer, solubility of APAP in presence of GBP, in presence of GBP, pH 4.0-8.0",~30 mg/mL
same,solubility,"water with gabapentin, pH 4.5, aqueous buffer, Acetaminophen solubility, APAP + GBP together in water, pH 4.5",31.7 mg/mL
same,solubility,"water with gabapentin, pH 5, aqueous buffer, Acetaminophen solubility, APAP + GBP together in water, pH 5.0",30.7 mg/mL
same,solubility,"water with gabapentin, pH 5.5, aqueous buffer, Acetaminophen solubility, APAP + GBP together in water, pH 5.5",30.2 mg/mL
same,solubility,"water with gabapentin, pH 6, aqueous buffer, Acetaminophen solubility, APAP + GBP together in water, pH 6.0",28.8 mg/mL
same,solubility,"water with gabapentin, pH 6.5, aqueous buffer, Acetaminophen solubility, APAP + GBP together in water, pH 6.5",28.4 mg/mL
same,solubility,"water with gabapentin, pH 7, aqueous buffer, Acetaminophen solubility, APAP + GBP together in water, pH 7.0",30.5 mg/mL
same,solubility,"water with gabapentin, pH 7.5, aqueous buffer, Acetaminophen solubility, APAP + GBP together in water, pH 7.5",27.8 mg/mL
same,solubility,"water with gabapentin, pH 8, aqueous buffer, Acetaminophen solubility, APAP + GBP together in water, pH 8.0",31.3 mg/mL
